Here are results for ten molecules from PMC7403315, “Cyclic peptide FXII inhibitor provides safe anticoagulation in a thrombosis model and in artificial lungs” (Nature Communications, 2020).

Chains of the proteins cited; added tags and fusions are not shown. Residues count along the entry.
UniProt P00748, 373-615 limits assumed: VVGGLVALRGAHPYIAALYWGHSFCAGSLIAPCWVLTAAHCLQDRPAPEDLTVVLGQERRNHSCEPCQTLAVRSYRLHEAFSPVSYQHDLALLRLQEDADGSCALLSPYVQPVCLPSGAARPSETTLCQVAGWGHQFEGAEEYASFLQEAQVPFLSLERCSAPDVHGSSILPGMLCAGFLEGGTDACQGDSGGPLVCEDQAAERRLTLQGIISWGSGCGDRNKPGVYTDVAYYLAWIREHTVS

The target in one assay is T1, Mouse α-FXIIa (Mus musculus, UniProt Q80YC5).
T1 construct: Mouse α-FXIIa; purchased Molecular Innovations MFXIIA
T1 sequence (Q80YC5 355-597 limits assumed): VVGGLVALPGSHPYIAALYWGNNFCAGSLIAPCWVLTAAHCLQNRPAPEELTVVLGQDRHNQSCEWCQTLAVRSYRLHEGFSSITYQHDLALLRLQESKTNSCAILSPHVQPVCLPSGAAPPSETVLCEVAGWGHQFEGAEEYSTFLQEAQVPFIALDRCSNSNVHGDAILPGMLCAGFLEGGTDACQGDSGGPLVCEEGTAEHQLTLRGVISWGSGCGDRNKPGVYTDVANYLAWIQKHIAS
T1 sequence (Q80YC5 20-354 limits assumed): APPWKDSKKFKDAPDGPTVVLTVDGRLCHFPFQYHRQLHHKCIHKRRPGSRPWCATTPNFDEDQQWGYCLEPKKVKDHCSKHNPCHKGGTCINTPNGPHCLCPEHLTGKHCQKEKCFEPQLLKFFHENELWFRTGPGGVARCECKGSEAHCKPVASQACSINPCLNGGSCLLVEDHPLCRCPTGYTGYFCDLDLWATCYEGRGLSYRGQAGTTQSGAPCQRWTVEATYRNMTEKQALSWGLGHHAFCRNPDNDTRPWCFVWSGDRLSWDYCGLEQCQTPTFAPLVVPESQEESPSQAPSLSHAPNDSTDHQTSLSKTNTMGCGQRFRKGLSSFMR
The assay can be described thus: FXIIa protease inhibition assay with fluorogenic substrate Boc-Gln-Gly-Arg-AMC. It counts as biochemical. The following applies: for IC50: read-out: IC50 Mouse FXIIa, crude, coumarin labeled peptides, individual plates; for Ki: read-out: Ki mouse FXIIa, crude bicyclic peptide carrying C-terminal coumarin amino acid. The protocol:
(§1) In order to test the inhibitory activity of peptides without prior purification, we developed the following method. […] After solid-phase peptide synthesis, cleavage, and ether precipitation, the peptides were chemically cyclized and their Ki values were determined in a FXIIa activity assay using a fluorogenic substrate.
(§2) Protease inhibition assays
(§3) The inhibitory activity of peptides was determined by measuring the residual protease activity with a fluorogenic substrate. The assay was performed in buffer containing 10 mM Tris-Cl, pH […]
(§4) 1% (v/v) DMSO in a volume of 150 µl. FXIIa activity was measured with the fluorogenic substrate Boc-Gln-Gly-Arg-AMC (Bachem) at a final concentration of 50 µM. Mouse α-FXIIa (Molecular Innovations cat # MFXIIA) and human β-FXIIa (Molecular Innovations cat # HFXIIAB) were used at final concentrations of 0.4 nM. The reaction was pipetted as follows: 50 µl of bicyclic peptide in assay buffer were added to 50 µl of FXIIa in assay buffer and incubated for 10 minutes at 25°C before 50 µl of 150 µM fluorogenic substrate in assay buffer were added to measure the residual protease activity with an Infinite M200Pro fluorescence plate reader (excitation at 368 nm, emission at 467 nm; Tecan) for a period of 30 minutes with a read every minute at 25°C. The Tecan software i-control (version 1.1) was used for data analysis. Stock solutions of 1 mM bicyclic peptide were prepared by either dissolving the unpurified cyclization reaction with water or by dissolving purified and lyophilized peptide in water. The bicyclic peptides were serially diluted two-fold using assay buffer. Sigmoidal curves were fitted to the data using the following dose response equation (1), wherein x = peptide concentration, y = % protease activity, and p = Hill slope. IC50 values were derived from the fitted curve.
(§5) The inhibition constants (Ki) were calculated according to the equation of Cheng and Prusoff, Ki = IC50/(1+([S]0/Km), wherein IC50 is the functional strength of the inhibitor, [S]0 is the total substrate concentration, and Km is the Michaelis-Menten constant. […]
(§6) the substrate Boc-Gln-Gly-Arg-AMC. […]

Another assay deals with T2, human β-FXIIa (Homo sapiens, UniProt P00748).
T2 construct: human β-FXIIa (Molecular Innovations cat #); purchased Molecular Innovations HFXIIAB; host or cells: human blood
The description is as above. It counts as biochemical. The protocol: as §1, §2, §3, §4, §5, §6

Setting [1] is: read-out: IC50 Human FXIIa; crude, coumarin labeled peptides; individual plates.
The mark [2] stands for this setting: read-out: Ki human FXIIa; crude bicyclic peptide carrying C-terminal coumarin amino acid.

“And” between values parts separate entries of the source, which are not always exact repeats. Equal entries are not always repeated. Where two headings read alike, the source gives them in different places.

A word on the IC50: it is the midpoint of a concentration-inhibition curve. Broadly, the Ki is a measure of affinity in units of concentration, obtained from inhibition or displacement. qrCFRLPCRQLRCR [R1qr]: the IC50 on Mouse α-FXIIa was 291 nM and 306 nM; on human β-FXIIa (setting [1]), 41.3 nM and 34.2 nM. Besides, the results for the Ki at Mouse α-FXIIa and at human β-FXIIa (setting [2]) were 250 nM and 32 nM, respectively.
Take rfCFRLPCRQLRCR [R1rf]: the IC50 at Mouse α-FXIIa is 206 nM and 308 nM; at human β-FXIIa (setting [1]) it was 42.5 nM and 44.3 nM. For the same molecule, the Ki was found to be 220 nM at Mouse α-FXIIa and 36.3 nM at human β-FXIIa (setting [2]).
On to srCFRLPCRQLRCR [R1sr], for which the IC50 was 892 nM at Mouse α-FXIIa; 66.6 nM and 74.1 nM at human β-FXIIa (setting [1]). The results for the Ki on Mouse α-FXIIa and at human β-FXIIa (setting [2]) were 750 nM and 59 nM, respectively.
With rlCFRLPCRQLRCR [R1rl], the IC50 at Mouse α-FXIIa was 521 nM; at human β-FXIIa (setting [1]) it was 95 nM and 103 nM. Moreover, the Ki stood at 440 nM on Mouse α-FXIIa and 83 nM on human β-FXIIa (setting [2]).
As for rqCFRLPCRQLRCR [R1rq], the IC50 at Mouse α-FXIIa is 167 nM and 215 nM; on human β-FXIIa (setting [1]), 22.2 nM and 27.2 nM. Also, the Ki was found to be 160 nM on Mouse α-FXIIa and 21 nM on human β-FXIIa (setting [2]).
`CC(C)C[C@@H]1NC(=O)[C@H](CCC(N)=O)NC(=O)[C@H](CCCNC(=N)N)NC(=O)[C@@H]2CSCCC(=O)N3CN(CN(C3)C(=O)CCSC[C@H](NC(=O)[C@@H](N)CCCNC(=N)N)C(=O)N[C@@H](Cc3ccccc3)C(=O)N[C@@H](CCCNC(=N)N)C(=O)N[C@@H](CC(C)C)C(=O)N3CCC[C@H]3C(=O)N2)C(=O)CCSC[C@@H](C(=O)N[C@@H](CCCNC(=N)N)C(N)=O)NC(=O)[C@H](CCCNC(=N)N)NC1=O` [FXII618, RCFRLPCRQLRCR]: on human β-FXIIa (crude, coumarin labeled peptides; individual plates; read-out: IC50 Human FXIIa), the IC50 was 23.4 nM.
For lrCFRLPCRQLRCR [R1lr], the IC50 was 142 nM and 170 nM at Mouse α-FXIIa; 14.1 nM and 23.4 nM at human β-FXIIa (setting [1]). In addition, the Ki came to 131 nM at Mouse α-FXIIa and 16 nM at human β-FXIIa (setting [2]).
Regarding frCFRLPCRQLRCR [R1fr], the IC50 was 204 nM and 242 nM on Mouse α-FXIIa; 22.3 nM and 30.6 nM at human β-FXIIa (setting [1]). The values for the Ki on Mouse α-FXIIa and on human β-FXIIa (setting [2]) were 190 nM and 22 nM, respectively.
In the case of arCFRLPCRQLRCR [R1ar], the half-maximal inhibitory concentration (IC50) on Mouse α-FXIIa was 418 nM; on human β-FXIIa (setting [1]) it was 34.3 nM and 43.3 nM. Moreover, the Ki is 350 nM on Mouse α-FXIIa and 32 nM on human β-FXIIa (setting [2]).
Turning to raCFRLPCRQLRCR [R1ra], the IC50 was 95.2 nM and 101 nM and 118 nM on Mouse α-FXIIa; 14.5 nM and 15.1 nM on human β-FXIIa (setting [1]). For the same molecule, the Ki on Mouse α-FXIIa is 88 ± 4 nM; on human β-FXIIa (setting [2]), 12.4 nM.
